What was measured:
[1] = molecular target: RAC-alpha serine/threonine-protein kinase (Homo sapiens, UniProt P31749); experiment: Inhibition of Akt after 1 hr
[2] = molecular target: Protein kinase C theta type (Homo sapiens, UniProt Q04759); experiment: Inhibition of PKCtheta after 1 hr
[3] = molecular target: Fibroblast growth factor receptor 4 (Homo sapiens, UniProt P22455); experiment: Inhibition of FGFR4 after 1 hr

Chains of the proteins cited; added tags and fusions are not shown. Lines headed by an entry give the natural chain unless they say otherwise; changes in a name come on top.
UniProt P31749: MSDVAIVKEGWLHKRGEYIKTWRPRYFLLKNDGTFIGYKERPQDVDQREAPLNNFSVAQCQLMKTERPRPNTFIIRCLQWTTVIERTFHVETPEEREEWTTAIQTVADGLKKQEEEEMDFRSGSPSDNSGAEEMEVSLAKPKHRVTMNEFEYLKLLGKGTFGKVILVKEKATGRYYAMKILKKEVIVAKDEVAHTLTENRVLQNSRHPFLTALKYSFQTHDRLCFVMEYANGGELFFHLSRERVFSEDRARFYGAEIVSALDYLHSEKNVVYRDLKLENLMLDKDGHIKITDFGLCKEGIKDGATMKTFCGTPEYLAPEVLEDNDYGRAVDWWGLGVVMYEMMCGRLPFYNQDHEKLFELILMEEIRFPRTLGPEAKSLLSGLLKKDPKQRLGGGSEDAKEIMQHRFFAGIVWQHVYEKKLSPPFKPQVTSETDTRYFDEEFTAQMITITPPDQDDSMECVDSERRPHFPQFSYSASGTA
UniProt Q04759: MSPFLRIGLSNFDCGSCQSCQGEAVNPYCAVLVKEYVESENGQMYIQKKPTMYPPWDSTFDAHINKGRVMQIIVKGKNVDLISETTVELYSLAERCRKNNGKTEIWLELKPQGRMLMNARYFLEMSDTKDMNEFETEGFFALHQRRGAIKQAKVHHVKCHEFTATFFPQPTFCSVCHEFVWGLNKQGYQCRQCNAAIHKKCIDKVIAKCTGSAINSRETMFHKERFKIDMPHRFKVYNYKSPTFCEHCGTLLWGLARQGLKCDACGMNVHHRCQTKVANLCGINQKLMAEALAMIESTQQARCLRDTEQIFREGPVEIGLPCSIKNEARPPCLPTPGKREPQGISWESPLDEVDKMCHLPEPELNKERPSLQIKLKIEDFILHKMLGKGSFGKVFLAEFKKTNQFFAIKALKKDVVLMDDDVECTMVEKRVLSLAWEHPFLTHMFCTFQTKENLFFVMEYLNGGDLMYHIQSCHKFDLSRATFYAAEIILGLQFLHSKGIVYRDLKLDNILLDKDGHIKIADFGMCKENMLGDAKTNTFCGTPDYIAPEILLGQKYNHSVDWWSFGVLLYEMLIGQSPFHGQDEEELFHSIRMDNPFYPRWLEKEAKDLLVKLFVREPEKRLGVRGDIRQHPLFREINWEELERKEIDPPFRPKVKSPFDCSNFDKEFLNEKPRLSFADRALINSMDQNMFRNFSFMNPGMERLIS
UniProt P22455, whole entry: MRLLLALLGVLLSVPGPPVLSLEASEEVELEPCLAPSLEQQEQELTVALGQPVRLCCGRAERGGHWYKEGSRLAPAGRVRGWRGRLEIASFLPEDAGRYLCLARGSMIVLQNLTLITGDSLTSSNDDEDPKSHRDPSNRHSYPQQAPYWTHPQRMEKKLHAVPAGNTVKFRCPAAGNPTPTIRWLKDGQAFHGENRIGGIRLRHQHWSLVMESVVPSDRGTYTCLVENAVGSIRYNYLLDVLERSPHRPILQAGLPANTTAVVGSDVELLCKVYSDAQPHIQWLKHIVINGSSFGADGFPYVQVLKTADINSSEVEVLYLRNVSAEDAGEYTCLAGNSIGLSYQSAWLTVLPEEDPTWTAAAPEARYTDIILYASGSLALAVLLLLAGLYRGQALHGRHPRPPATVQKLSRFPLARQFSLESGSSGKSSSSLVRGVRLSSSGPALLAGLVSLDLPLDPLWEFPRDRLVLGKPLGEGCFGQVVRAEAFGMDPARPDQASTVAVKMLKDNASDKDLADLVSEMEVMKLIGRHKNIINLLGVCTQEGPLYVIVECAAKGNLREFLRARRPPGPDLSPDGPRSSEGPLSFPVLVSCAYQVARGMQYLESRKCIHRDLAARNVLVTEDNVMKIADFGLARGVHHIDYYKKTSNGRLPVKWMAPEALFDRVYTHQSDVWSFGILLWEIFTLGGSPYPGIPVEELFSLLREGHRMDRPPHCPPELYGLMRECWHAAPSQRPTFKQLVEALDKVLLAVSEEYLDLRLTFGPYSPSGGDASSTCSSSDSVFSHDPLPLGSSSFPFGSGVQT

Measured: IC50

O=C(Nc1cccc(-c2cn3ccnc3c(NCc3ccncc3)n2)c1)Nc1cccc(C(F)(F)F)c1
50 µM: all assays above
